# Yeast mating assay B: variants of the scFv Ab-14

Reference: Li et al. 2023, doi:10.1038/s41467-023-39022-2. File: FLAb, binding data.

Binding partner: SARS-CoV-2 spike HR2 peptide, sequence PDVDLGDISGINAS.

Parent: Ab-14, a human scFv built as VH, a (GGGGS)3 linker, VL. Only the CDRs of the light chain vary.
VH: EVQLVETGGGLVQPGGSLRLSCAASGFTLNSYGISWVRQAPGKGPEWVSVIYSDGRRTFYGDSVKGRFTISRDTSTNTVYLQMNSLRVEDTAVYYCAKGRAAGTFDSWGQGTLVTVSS
VL: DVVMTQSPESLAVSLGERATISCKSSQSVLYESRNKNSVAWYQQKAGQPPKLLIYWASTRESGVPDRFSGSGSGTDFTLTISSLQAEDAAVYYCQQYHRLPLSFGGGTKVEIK

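These sequences belong to a second round, designed from the earlier measurements on random variants of the parent. Their group label is 14L_GP_Gibbs (GP: Gaussian process model; Gibbs: Gibbs sampling; a sequence that several methods proposed may carry one label only). AlphaSeq pools MATa yeast showing the antibodies with MATalpha yeast showing the peptide. Binding brings cells together so that they mate, and sequencing counts the barcode pairs among the diploids. Read counts were normalised to the haploid input and turned into Kd by a linear fit to BCL2-family pairs of known affinity, for each replicate. There are six technical replicates.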

Each variant is given by its three light chain CDRs, as the data file delimits them; those of the parent are KSSQSVLYESRNKNSVA, WASTRES, QQYHRLPLS. Scale: log10 of Kd in nM, estimated from mating counts; low values are strong binders. A pair that was not seen in that replicate is written "nd"; this usually means weak binding, but a binder can also be missed.

CDR-L1 | CDR-L2 | CDR-L3 | log10 Kd (nM) by replicate | empty controls
KVSVSQPYETRNKNSVA | EASTREE | QQYHRLPLS | 0.31 -0.13 0.09 -0.14 -0.08 -0.05 | 1 of 18 (3.21)
KLSQDDWYESRNCNNVA | QASTREQ | QQYHRLPLS | 0.23 0.63 0.43 0.62 0.71 0.81 | 0 of 18
KLQQADLYESRNKNSVA | QASERES | QCYHRLPLS | 2.08 nd 0.94 1.42 2.23 2.00 | 0 of 18
KLSQSVLMESRNVNNVA | EASQRES | QQYHRLPLS | nd 1.36 1.54 0.61 1.08 1.17 | 0 of 18
KLSWSVLLESRAKNSVA | NASLRES | QQYHRLPLS | 0.74 0.48 0.65 0.17 0.58 0.91 | 0 of 18
KMSQSFLMEMRNGNSVA | NASKRES | QQYHRLPLS | 0.28 0.06 0.24 0.13 -0.12 0.04 | 0 of 18
KLSQQGLYGSRNANSVA | NASTREQ | QQYHRLPLS | 0.21 -0.03 -0.23 -0.23 -0.65 0.00 | 0 of 18
KLMGSVLYESRMKNAVA | GASQREK | QQYHRLPLS | -0.03 -0.21 -0.19 -0.15 0.03 0.05 | 1 of 18 (2.25)
KLSYSWPGESRNKNSVA | DASTRES | QQYHRLPLS | -0.48 -0.54 -0.63 -0.80 -0.70 -0.51 | 1 of 18 (2.10)
KLSPSEMYESRMKNSVA | MASTRYT | QQYHRLPLS | 1.07 1.61 0.50 0.92 0.51 0.96 | 1 of 18 (1.66)
KVSNSVDGEDRNKNAVA | HASTRES | QQYHRLPLS | 0.03 -0.27 -0.47 -0.34 -0.42 -0.25 | 0 of 18
KLEQSAMLESRNKNAVA | SASQREL | QQYHRLPLS | -0.18 -0.38 -0.36 0.05 -0.57 -0.28 | 1 of 18 (2.31)
KFSQQVLYEDKQVNSVA | NASQRMS | QQYHRLPLS | 0.25 -0.04 -0.13 0.08 -0.39 -0.07 | 0 of 18
KSSWSVDYEDRASNSVA | NASQRLW | QQYHRLPLS | 0.19 -0.20 0.08 -0.10 -0.23 0.50 | 1 of 18 (1.75)
KLSQSAPYEDRCFNSVA | HASTRES | QQYHRLPLS | 1.15 1.76 2.05 2.22 2.28 1.69 | 0 of 18
KLMQWQLYESRNKNNVA | NASTREM | QQYHRLPLS | 0.32 0.39 0.21 0.34 0.18 0.54 | 0 of 18
KIDQSELEESRNKNSVA | NATVRED | QQYHRLPLS | 0.20 0.06 -0.04 -0.02 -0.06 0.20 | 2 of 18 (2.50)
KFSQSDDYEDRNKNSVA | NGSTRSS | QQYHRLPLS | 0.03 0.04 -0.28 -0.02 0.02 0.01 | 3 of 18 (2.54)
KVMQSMPYESRNKNSVA | EASQREL | QQYHRLPLS | 0.02 -0.01 -0.10 -0.32 -0.14 -0.02 | 1 of 18 (3.55)
KLQWSNLYWSRNKNSVA | QASTRLM | QQYHRLPLS | 1.80 1.46 1.31 1.41 1.41 1.31 | 1 of 18 (3.08)
KCSQDYCYGDRNKNSVA | NASTREQ | QQYHRLPLS | 0.05 -0.16 -0.08 -0.19 -0.38 -0.29 | 0 of 18
KSSISSDYEDRNDNSVA | NASQREH | QQYHRLPLS | 0.25 0.05 0.22 -0.03 0.13 0.21 | 3 of 18 (2.86)
YLSQSVEYESRNKNSVA | SASTREY | QQYHRLPLA | 0.71 0.36 0.58 0.46 0.77 0.56 | 0 of 18
KLSQQWLMESRNKNSVA | NASLRLS | QCYHRLPLS | 1.67 1.41 1.75 1.78 1.39 2.78 | 1 of 18 (1.96)
KSSGSVLGEDWNKNSVA | NASKRES | QQYHRLPLS | 0.35 0.32 0.16 0.29 0.26 0.47 | 1 of 18 (3.39)
KLMTSSLYESRMANNVA | AASTREE | QQYHRLPLS | 1.58 1.24 0.58 1.08 0.89 2.07 | 1 of 18 (2.31)
KSMQSVPGEDRNKNSVA | EASTRCS | QQYHRLPLS | -0.10 -0.02 -0.28 -0.27 -0.37 -0.11 | 1 of 18 (1.86)
KLSGSFMMLSRNDNSVA | DASTRES | QQYHRLPLS | 0.11 -0.10 -0.25 -0.35 -0.20 -0.03 | 1 of 18 (1.77)
VLSQSVLPESRNKNSVA | SASTRLP | QQYHRLPLS | 0.09 0.40 -0.01 0.08 0.13 0.29 | 0 of 18
KFSQSQPYESRMFNSVA | NASLRMS | QQYHRLPLS | 0.49 0.36 0.72 0.67 0.43 0.44 | 1 of 18 (2.11)
KSAQSDLYESRNFNSVA | AASTRES | QQYHRLPLS | 0.72 0.61 0.63 0.79 0.74 0.85 | 1 of 18 (2.63)
KVSQSQLYESRNMNSVA | NASTREM | QQYHRLPLY | 0.26 0.17 0.24 0.05 0.03 0.52 | 2 of 18 (2.89)
KLSWSDLYESRNCNSVA | NASQREV | QQYHRLPLS | 1.27 1.27 1.74 1.28 0.93 1.23 | 1 of 18 (3.18)
KFQQSDPYESRNKNSVA | SASTRSS | QQYHRLPLS | 0.30 0.17 0.15 0.04 -0.04 0.32 | 0 of 18
KSSQIVLGMDGNKNSVA | QASQRES | QQYHRLPLS | 0.51 0.35 0.50 0.25 0.40 0.86 | 0 of 18
KLQQSMLYMDRNANNVA | NASTRLS | QQYHRLPLS | -0.23 -0.15 -0.17 -0.25 -0.39 -0.22 | 2 of 18 (2.85)
KLQQSWEYESRNSNNVA | MGSQRED | QQYHRLPLS | 0.26 0.93 0.23 0.41 0.30 0.22 | 0 of 18
KLQQAELGESRNKNSVA | SASTRES | QQYHRLPLS | 0.04 -0.23 -0.21 -0.03 -0.24 -0.04 | 0 of 18
KWSWSVDDESRNDNSVA | DASTRED | QQYHRLPLS | 0.75 0.33 0.20 0.37 0.41 0.64 | 0 of 18
KLSWSNLYESRNCNSVA | NASTREE | QQYHRLPLS | 0.55 0.24 0.32 0.29 0.37 0.49 | 3 of 18 (3.01)
KLMGSMLYEQRMTNSVA | QASVRMS | QQYHRLPLS | 0.42 0.24 0.23 0.31 0.59 0.48 | 1 of 18 (2.43)
KVSQSEDYESRNKWSVA | NASTRES | QQYHRLPLS | 1.48 2.90 2.05 1.09 2.29 1.17 | 0 of 18
KFQQSVLYEDRNLNNVA | HGSTRSS | QDYHRLPLS | -0.37 -0.38 -0.45 -0.72 -0.67 -0.48 | 1 of 18 (2.11)
KLSQSDLYEDRNLNNVA | NASQRES | QVYHRLPLM | -0.14 -0.41 -0.42 -0.26 -0.51 -0.18 | 2 of 18 (2.42)
KLSFSCLYESAMKNSVA | NASTRYS | QQYHRLPLS | 0.54 0.09 0.32 0.12 0.08 0.51 | 2 of 18 (3.62)

The parent sequence was in this pool as ten entries: three were never detected, three once, and four in most replicates, with averages from 0.34 to 2.37. A sequence measured in both rounds can read differently, since the two assays cover different ranges. In the paper, a design with two or fewer of six values counts as a poor binder. Background: pairings of all light chain designs with three empty control strains gave a value in 4% of cases (median 2.64, 5th percentile 1.59). Values in that range, when seen in few replicates, are hard to tell from nonspecific mating. The control count says in how many pairings with the empty strains this scFv gave a signal, with their mean in brackets.